Results reported in patent US11078188B2, “Dihydroquinoxaline bromodomain recognition protein inhibitor, preparation method and use thereof” (SHANGHAI INSTITUTE OF MATERIA MEDICA, CHINESE ACADEMY OF …, priority 2017, dated 2021).

Test system: human myeloma cells MM.1S
Experiment: MM.1S cell viability, CCK-8 method
Details: read-out: MM.1S IC50, 72 h treatment

- IC50: 4.16 nM
SMILES: Cc1ccc(-n2c(C)nnc2-c2ccc3c(c2)N(C2CC2)C(C)C(=O)N3C)cc1 (stereo not shown)
